Results: PMC7793260

Columns and labels:
[1] = biological target: PBP2 (wild type), fused to mKO or to mCherry (E. coli) (UniProt P0AD65); assay: FRET or BRET; two-plasmid spectral FRET in E. coli LMC500 cells; mCherry fusion as acceptor, mKO fusion as donor; Gb4 medium, steady state at 28 C, 15 uM IPTG for two mass doublings, FAGA-fixed; acceptor FRET efficiency (EfA) by spectral unmixing
[2] = biological target: mKO-^MalFNTPBP2 (E. coli); assay: as above

EfA (acceptor FRET efficiency) [1]: 4.3%
EfA (acceptor FRET efficiency) [2]: 5.3%
Substance: mCh-MreD (from UniProt P0ABH4 1-162) (natural protein)
